The source made the active and inactive calls. The calls are words filed in the database; no cut-off is given here.
Columns and labels:
[1] = molecular target: T1, DNA oxidative demethylase ALKBH2 (Homo sapiens) (UniProt Q6NS38); details: dose 200.0 µM
T1 sequence (whole entry): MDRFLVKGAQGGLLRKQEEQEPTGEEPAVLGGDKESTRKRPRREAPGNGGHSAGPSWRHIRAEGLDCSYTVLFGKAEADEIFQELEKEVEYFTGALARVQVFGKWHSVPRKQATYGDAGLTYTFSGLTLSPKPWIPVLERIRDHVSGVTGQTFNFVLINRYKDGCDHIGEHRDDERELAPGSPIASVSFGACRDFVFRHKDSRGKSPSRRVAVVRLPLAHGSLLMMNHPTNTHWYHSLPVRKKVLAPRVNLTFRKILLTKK

[2] = molecular target: T1, DNA oxidative demethylase ALKBH2 (Homo sapiens); details: dose 0.78 µM
[3] = molecular target: T1, DNA oxidative demethylase ALKBH2 (Homo sapiens); details: dose 1.56 µM
[4] = molecular target: T1, DNA oxidative demethylase ALKBH2 (Homo sapiens); details: dose 3.16 µM
[5] = molecular target: T1, DNA oxidative demethylase ALKBH2 (Homo sapiens); details: dose 6.25 µM
[6] = molecular target: T1, DNA oxidative demethylase ALKBH2 (Homo sapiens); details: dose 12.5 µM
[7] = molecular target: T1, DNA oxidative demethylase ALKBH2 (Homo sapiens); details: dose 25.0 µM
[8] = molecular target: T1, DNA oxidative demethylase ALKBH2 (Homo sapiens); details: dose 50.0 µM
[9] = molecular target: T1, DNA oxidative demethylase ALKBH2 (Homo sapiens); details: dose 100.0 µM
[10] = test system: U-87 MG; details: Homo sapiens; U-87MG ATCC; dose 5-10 µM, time 12.0 day
[11] = test system: U-87 MG; details: Homo sapiens; U-87MG ATCC; dose 2.5-5 µM, time <= 24.0 hrs
[12] = test system: U-87 MG; details: Homo sapiens; U-87MG ATCC; dose 2.5-5 µM, time <= 24.0 hrs; remark: listed apart in the source

ΔTm [1] [°C] | ΔTm [2] [°C] | ΔTm [3] [°C] | ΔTm [4] [°C] | ΔTm [5] [°C] | ΔTm [6] [°C] | ΔTm [7] [°C] | ΔTm [8] [°C] | ΔTm [9] [°C] | SMILES | inhibition [10] | inhibition [11] | inhibition [12]
12.8 | 2.4 | 3.88 | 5.68 | 7.01 | 8.24 | 9.62 | 10.7 | 11.7 | CC(C)(C)C(NC(=O)c1ccc(-n2cc(C(=O)O)cn2)nc1)c1ccccc1 (configuration not stated) | – | – | –
– | – | – | – | – | – | – | – | – | CCOC(=O)c1cnn(-c2ccc(C(=O)NC(c3ccccc3)C(C)(C)C)cn2)c1 (configuration not stated) | Active | Dose-dependent-effect | Time-dependent-effect

Source: ChEMBL document CHEMBL6096662, “Discovery and structure-activity relationship study of nicotinamide derivatives as DNA demethylase ALKBH2 inhibitors” (Eur J Med Chem, 2025)
